Assay: Pharmacokinetics in male C57BL/6 mice, oral gavage once a day for 5 days
Settings: analyte d-R-pio in plasma, day 5; 15 mg/kg oral gavage daily

In the case of CCc1ccc(CCOc2ccc(C[C@H]3SC(=O)NC3=O)cc2)nc1, the “tmax d-R” value is reported as 1 h.

— US11141411B2, “Methods of treating neurological, metabolic, and other disorders using enantiopure deuterium-enriched pioglitazone” (Poxel SA, priority 2014, dated 2021)
